From patent US11510911B2, “Method for prediction of susceptibility to sorafenib treatment by using SULF2 gene, and composition for treatment of cancer comprising SULF2 inhibitor” (AJOU UNIVERSITY INDUSTRY—ACADEMIC COOPERATION FOUNDATION, priority 2017, dated 2022) come the findings set out here.

For the assay, the system named is EGFR and amphiregulin. As to the kind of experiment: Confocal microscopy of coexistence of EGFR and amphiregulin. The class given is cell-based, Human. Conditions: 2 μM sorafenib, 72 hours.

Turning to `CNC(=O)c1cc(Oc2ccc(NC(=O)Nc3ccc(Cl)c(C(F)(F)F)c3)cc2)ccn1` [Sorafenib], the “coexistence of EGFR and amphiregulin” value by setting is: (SULF2-N491K cells) “did not show increased coexistence”; (SULF2-WT cells) “increased”; (vector cells) “coexisted around the nucleus”.
